This is a selection; strong and weak results do not stand in their true shares. Entries with a potency or affinity are not part of this list. Active and inactive are the calls of the source. How the calls were made is not given here.
Test: viability loss in BHK-21 cells – cell-based, plate reader, cherry-pick samples, cytotoxicity control, dose response (AID 687030);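 further: cells were exposed to compound for three days before reading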
Settings: at 19.5 µM (top of the series)

Compound | activity change, negative = toxicity
CCOC(=O)c1ccc(NP(C)(=O)Oc2ccc(Cl)cc2)cc1 (stereo unspecified) | inactive: 1.66%

From PubChem BioAssay AID687030 (Broad Institute, 2013)
